In ChEMBL document CHEMBL1145940, “Computer modeling of selective regions in the active site of nitric oxide synthases: implication for the design of isoform-selective inhibitors” (J Med Chem, 2003) one finds Ki data, which are given here for two compounds.

Assay [1] in a line: Inhibitory activity against endothelial nitric oxide synthase (eNOS).
Assay [2] is described as follows: Inhibitory activity against neuronal nitric oxide synthase.

SMILES strings stand for the structures.

What is called Ki is the equilibrium dissociation constant of an inhibitor or competing ligand from its target. A low value points to tighter binding. With `[H]/N=C(/NCCC[C@H](N)C(=O)N[C@H]1CNC(C(N)=O)C1)N[N+](=O)[O-]` (some centres not stated), the inhibitory constant (Ki) in assay [1] was found to be 128 µM.

With `N=C(NCCC[C@H](N)C(=O)N[C@@H]1CN[C@@H](C(N)=O)C1)N[N+](=O)[O-]`, the inhibition constant (Ki) in assay [2] amounted to 1.1 µM.
